Assay results taken from PMC5761851, “Application of a phenotypic drug discovery strategy to identify biological and chemical starting points for inhibition of TSLP production in lung epithelial cells” (PLoS ONE, 2018).

How the values were obtained:
[1] = test system: STAT6 (JAK1/3) reporter in RA-1 cells; conditions: individual values
[2] = test system: STAT6 (JAK1/3) reporter in RA-1 cells; assay: cells

## CS(=O)(=O)N1CCN(c2ccc(Nc3ncc(C(N)=O)c(NC4CC4)n3)cc2)CC1 [compound 5]
[1]
  IC50: 59 nM
[2]; read-out: Activity in reference cell based assay (IC50, μM) (95% CI) STAT6 (JAK1/3) reporter in RA-1 cells, geometric mean
  IC50: 0.063 µM
[2]; read-out: Cellular activity (IC50, mM) STAT6 reporter in RA-1 cells, individual values
  IC50: 0.069 µM

Where two headings read alike, the source gives them in different places.
